The record followed here is ChEMBL document CHEMBL2429856, “Benzazepinones and benzoxazepinones as antagonists of inhibitor of apoptosis proteins (IAPs) selective for the second baculovirus IAP repeat (BIR2) domain” (J Med Chem, 2013).

By UniProt entry, the sequences of proteins in these tests, tags left out.
UniProt P98170, whole entry: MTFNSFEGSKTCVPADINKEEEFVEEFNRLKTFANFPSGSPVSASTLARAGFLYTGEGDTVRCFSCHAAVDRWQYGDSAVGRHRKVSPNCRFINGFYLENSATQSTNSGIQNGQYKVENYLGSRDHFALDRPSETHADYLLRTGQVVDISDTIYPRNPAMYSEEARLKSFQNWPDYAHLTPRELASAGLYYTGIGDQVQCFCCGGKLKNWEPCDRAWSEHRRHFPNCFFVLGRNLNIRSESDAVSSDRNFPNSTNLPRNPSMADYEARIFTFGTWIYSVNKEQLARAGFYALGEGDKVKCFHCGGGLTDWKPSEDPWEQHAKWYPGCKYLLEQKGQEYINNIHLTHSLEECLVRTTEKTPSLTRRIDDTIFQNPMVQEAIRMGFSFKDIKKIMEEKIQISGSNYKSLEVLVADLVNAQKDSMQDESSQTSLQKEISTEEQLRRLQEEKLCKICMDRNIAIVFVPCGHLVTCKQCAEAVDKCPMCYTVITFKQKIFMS

The assay addresses E3 ubiquitin-protein ligase XIAP (Homo sapiens, UniProt P98170).

For `CN[C@@H](C)C(=O)N[C@@H]1C(=O)N(Cc2noc3ccccc23)c2ccccc2OC12CCOCC2`, the IC50 is over 54.8 µM.

`CN[C@@H](C)C(=O)N[C@H]1COc2ccccc2N(Cc2c(OC)ccc3cc(Br)ccc23)C1=O` showed an IC50 of over 54 µM.
